# Values of other authors as cited in patent publication US8518443B2, “Opioid agonist formulations with releasable and sequestered antagonist” (Purdue Pharma, L.P., priority 2001, dated 2013).
# System: opioid receptors
# Settings: cited from earlier work
smiles,measurement,setting,value
C=CCN1CC[C@]23c4c5ccc(O)c4O[C@H]2C(=O)CC[C@@]3(O)[C@H]1C5 [naloxone],block of the effect of 25 mg of heroin,one mg intravenously,completely block
same,effect on morphine-like opioid agonist effects,small doses (0.4-0.8 mg) intramuscularly or intravenously in man,prevent or promptly reverse
